Screening results: PubChem, National Center for Advancing Translational Sciences (NCATS)
Sfp inh: qHTS Assay for Inhibitors of Bacillus subtilis Sfp phosphopantetheinyl transferase (PPTase); 4'-phosphopantetheinyl transferase ffp (Bacillus subtilis), Q9F4F7; Biochemical Sfp PPTase activity, qHTS; Potency, µM, inactives show max response, negative = inhibition, hits mostly inhibitors; 310,000 compounds, 3.5% hits; AID 1490, 2009; active means well fitted inhibition curve with a large enough effect; inconclusive means small, poorly fitted or top-dose-only effect, or another doubt; inactive means no such curve, though single readings can be large or run the other way;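 further: the enzyme is Sfp with the accession as filed and its product quenches rhodamine fluorescence; potency means the concentration at half of the fitted maximal effect; 0% = enzyme reaction without inhibitor and -100% = no enzyme wells; top concentration of the series not given in the record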
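Sfp 15 nM + cpd, 15 min RT; start w/ rhodamine-CoA 5 uM, BHQ-2-YbbR 12.5 uM (final); 50 mM Hepes pH 7.6, 10 mM MgCl2, 0.01% NP-40, 0.01% BSA; read 525/598 nm at 0 and 30 min.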
miR-21 reporter: miR-21 reporter, rising signal | AID 2288 | HeLa miR-21 FLuc reporter, luciferase, 48 h | 340,000 tested, under 10 active | Potency, µM (titrated, usually from 38.3 µM), for the others: at the top dose reporter change, positive = more light; active = well fitted rising curve with a large enough effect; inconclusive = small, poorly fitted or top-dose-only effect; inactive = no such curve, though single readings can be large or run the other way;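 also: % of control where 0% means no effect; miR-21 action dims this reporter so a rising signal means less miR-21 action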
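HeLa cells endogenously expressing miR-21, stably carrying CMV-driven firefly luciferase with a downstream miR-21 binding site, 2000 cells/well. Titrations up to approximately 40 uM, 48 hours; luciferase luminescence read.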
G9a inh: blocks human histone lysine methyltransferase G9a; Q96KQ7; G9a H3K9 monomethylation, AlphaScreen, 2 h; Potency, µM (titrated, usually from 102 µM), for inactives: at the highest dose activity, negative = inhibition, actives largely listed as inhibitors; 350,000 compounds, 8.8% hits; AID 504332; further: potency means the concentration at half of the fitted maximal effect; on the % scale 0 is the no-effect control and ±100 the full control effect; nearly all actives have a fitted effect of over 75% in size
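Step 1: enzyme (final 20 nM) with compound, 15 min RT. Step 2: substrate peptide 500 nM and SAM 20 uM, 2 h RT. Step 3: anti-H3K9me1 antibody and AlphaScreen beads, 10 min, then plate read.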
LMNA splice mod: changes lamin A minigene splicing in HeLa cells. HeLa LMNA splicing GFP/RFP minigene ratio, 48 h. 200,000 compounds, 0.01% hits. Potency, µM (highest dose often 46.1 µM), without a hit: at the top dose ratio change, negative = inhibition, hits mostly inhibitors; active means well fitted inhibition curve with a large enough effect in the signal ratio, with a control signal flat, not every such curve was filed as active; inconclusive means small, poorly fitted or top-dose-only effect, or effect the other way, or a change in a side signal; the % refers to the signal ratio; further: potency means the concentration at half of the fitted maximal effect; on the % scale 0 is the no-effect control and ±100 the full control effect
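S3 HeLa cells stably expressing lamin A-EGFP splicing minigene plus DsRed2, 600 cells/well, 48 h compound exposure at 37C. Laser-scanning cytometry; analysed as GFP (500-530 nm)/RFP (575-640 nm) total intensity ratio; 0.5% DMSO vehicle.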
ALDH1A1 block: blocks purified human ALDH1A1 activity; 220,000 compounds, 7.3% hits; Purified ALDH1A1, NADH fluorescence, propionaldehyde substrate; Potency, µM (highest dose often 75.3 µM), for inactives: at the highest dose activity, negative = inhibition, most hits filed as inhibitors; active means well fitted inhibition curve with a large enough effect, not every such curve was filed as active; inconclusive means small, poorly fitted or top-dose-only effect, or another doubt; inactive means no such curve, though single readings can be large or run the other way;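 further: potency means the concentration at half of the fitted maximal effect; plate controls were no enzyme wells and a reference inhibitor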
KDM4E inh: JMJD2E (human) inhibition; B2RXH2; JMJD2E catalytic domain, FDH-coupled NADH fluorescence (FDH is formaldehyde dehydrogenase); Potency, µM (series often up to 57.1 µM), for the others: at the highest dose activity change, negative = inhibition, hits mostly inhibitors; 230,000 compounds, 1.6% hits; active means well fitted inhibition curve with a large enough effect, not every such curve was filed as active; inconclusive means small, poorly fitted or top-dose-only effect, or another doubt; inactive means no such curve, though single readings can be large or run the other way;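 further: potency means the concentration at half of the fitted maximal effect; 0% = wells with enzyme and -100% = buffer wells without enzyme; nearly all actives have a fitted effect of over 50% in size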
Active calls of the source: *; ? = inconclusive; / = no result; ! = not confirmed by another sample; [ ] = remark or other dose. Most compounds without a hit are left out; they make up all but 13% or so of the library. Unless noted, the call rests on the fitted dose curve; in most records, active means well fitted curve in the direction sought with a large enough effect; inconclusive means small, poorly fitted or top-dose-only effect, or another doubt; inactive means no such curve, though single readings can be large; an effect the other way counts as inactive or inconclusive.

| nr | compound | Sfp inh | miR-21 reporter | G9a inh | LMNA splice mod | ALDH1A1 block | KDM4E inh |
| --- | --- | --- | --- | --- | --- | --- | --- |
| 1 | CCCc1cnc2c(c1SCC(=O)Nc1ccc([N+](=O)[O-])cc1)c(=O)n(C)c(=O)n2C | / | -3% | 13µM* | 6%[46 µM] | / | / |
| 2 | Cn1cnc(CCN)c1 | / | / | 7.9µM*! | -12% | 10% | -13% |
| 3 | Cc1[nH]cnc1CCN | -12% | / | / | / | -2% | -4% |
| 4 | CCCOCCN(C(=O)CCl)c1c(CC)cccc1CC | 14% | / | / | / | / | / |
| 5 | CCCCn1c(O)c(C=NC2CCCCC2N)c(=O)[nH]c1=O (stereo unspecified) | 8% | -4% | 4µM* | 1% | -6% | -2% |
| 6 | CN1CCN(/N=C/c2c(O)n(Cc3ccc(F)cc3)c(=O)[nH]c2=O)CC1 | 9% | -3% | 56µM* | / | / | -14% |
| 7 | O=c1[nH]c(=O)n(Cc2ccc(F)cc2)c(O)c1C=NCC1CCCO1 (stereo unspecified) | ? | -4% | -31%[59 µM] | 12% | -2% | 5% |
| 8 | CCCCCCn1c(O)c(C=NC2CCCCC2N)c(=O)[nH]c1=O (stereo unspecified) | 7% | -6% | -2% | -1% | -3% | -3% |
| 9 | NC1CCCCC1N=Cc1c(O)n(Cc2ccc(F)cc2)c(=O)[nH]c1=O (stereo unspecified) | -5% | 0% | 0.89µM* | 1% | -2% | -12% |
| 10 | CCCCCCCCCCCCCCC[C@@H](O)[C@@H](N)COP(=O)(O)O | -6% | / | / | / | 3% | -1% |
| 11 | [Li+] | / | / | 6%[59 µM] | -21% | 5% | 2% |
| 12 | c1csc(CN2CCC3(CCNCC3)CC2)n1 | -6% | / | 4%[12.7 µM] | / | 3% | / |
| 13 | CC=C1C2C=C(C)CC1(N)c1ccc(=O)[nH]c1C2 (stereo unspecified) | 17% | / | 47%[59 µM] | / | -2% | / |
| 14 | C[N+]1=C(/C=C/Nc2ccccc2)C(C)(C)c2ccccc21 | ? | 25% | ? | ? | 1% | 8% |
| 15 | CN1/C(=C\C=C\C2=[N+](C)c3ccc4ccccc4c3C2(C)C)C(C)(C)c2ccccc21 | 16µM* | ? | 10µM* | ? | 20µM* | -1% |
| 16 | Fc1ccccc1-c1n[nH]c(=S)n1Cc1ccccc1 | 8% | 0% | 3.5µM* | / | / | / |
| 17 | ClC(Cl)c1ccccc1 | / | / | / | / | -7% | / |
| 18 | CNc1ccc2oc(C[C@@H]3OC4(CC[C@@H]3C)O[C@H]([C@@H](C)C(=O)c3ccc[nH]3)[C@H](C)C[C@H]4C)nc2c1C(=O)O (stereo partly specified) | 22% | / | 16µM* | / | ? | / |
| 19 | COc1ccccc1N1CCN(Cc2cccc(Br)c2)CC1 | -25% | 13% | 11µM* | / | / | / |
| 20 | CN1c2cc(O)c(N=NC(N)=O)cc2CC1S(=O)(=O)O (stereo unspecified) | -26% | / | ? | / | / | / |
| 21 | COc1cc(/C=C2/C(=O)N(c3ccccc3)N=C2C)ccc1OS(=O)(=O)c1ccccc1 | -22% | -9% | 35µM* | -1% | ? | 0% |
| 22 | COc1cc(C=C2C(=O)NC(=O)NC2=O)ccc1OS(=O)(=O)c1ccccc1[N+](=O)[O-] | 50µM* | -27% | 10µM* | / | / | / |
| 23 | Cc1c(C=C2C(=O)NC(=O)NC2=O)c(=O)n(-c2ccccc2)n1C | 3% | -3% | ? | -4%[46 µM] | 3% | 0% |
| 24 | CCOc1cc(C=C2C(=O)NC(=O)NC2=O)ccc1OS(=O)(=O)c1ccccc1 | 50µM* | -5% | 22µM* | 0% | ? | ? |
| 25 | CCOc1cc(C=C2C(=O)NC(=O)NC2=O)ccc1OCC(=O)N1CCOCC1 | ? | 10% | 8.9µM* | 11% | 35µM* | ? |
| 26 | CCCc1cc(N2CCN(c3cccc(C)c3C)CC2)n2cnnc2n1 | / | ? | -9%[59 µM] | / | / | / |
| 27 | COC(=O)[C@H]1C[C@H]2CC[C@H](O)C[C@H]2N1CC1CC1 | 12% | / | / | / | -5% | -9% |
| 28 | COC1=CC(=O)O[C@H](/C=C/c2ccc3c(c2)OCO3)C1 | 18% | / | / | / | / | / |
| 29 | COc1cc(C=C2C(=O)NC(=O)NC2=O)cc(OC)c1OC | 32µM* | 2% | 22%[2.33 µM] | / | / | ? |
| 30 | O=C1NC(=S)NC(=O)C1=Cc1ccc(OCC(=O)N2CCCC2)cc1 | 20µM* | -10% | 14µM* | / | / | / |
| 31 | C[C@@H](NC(=O)[C@@H](N)Cc1ccc(O)cc1)C(=O)NCC(=O)N(C)[C@@H](Cc1ccccc1)C(=O)NCCO | 2% | / | / | / | / | / |

In the list so far, 4 contain fluorine.
| nr | compound | Sfp inh | miR-21 reporter | G9a inh | LMNA splice mod | ALDH1A1 block | KDM4E inh |
| --- | --- | --- | --- | --- | --- | --- | --- |
| 6 | CN1CCN(/N=C/c2c(O)n(Cc3ccc(F)cc3)c(=O)[nH]c2=O)CC1 | 9% | -3% | 56µM* | / | / | -14% |
| 7 | O=c1[nH]c(=O)n(Cc2ccc(F)cc2)c(O)c1C=NCC1CCCO1 (stereo unspecified) | ? | -4% | -31%[59 µM] | 12% | -2% | 5% |
| 9 | NC1CCCCC1N=Cc1c(O)n(Cc2ccc(F)cc2)c(=O)[nH]c1=O (stereo unspecified) | -5% | 0% | 0.89µM* | 1% | -2% | -12% |
| 16 | Fc1ccccc1-c1n[nH]c(=S)n1Cc1ccccc1 | 8% | 0% | 3.5µM* | / | / | / |
